This assay deals with T1, α-mannosidase (Jack bean) (Canavalia ensiformis, UniProt C0HJB3).
T1 construct: purchased Sigma-Aldrich Co. LLC. lot; 055K7047 (catalogue number not given)
T1 sequence (C0HJB3 1-981): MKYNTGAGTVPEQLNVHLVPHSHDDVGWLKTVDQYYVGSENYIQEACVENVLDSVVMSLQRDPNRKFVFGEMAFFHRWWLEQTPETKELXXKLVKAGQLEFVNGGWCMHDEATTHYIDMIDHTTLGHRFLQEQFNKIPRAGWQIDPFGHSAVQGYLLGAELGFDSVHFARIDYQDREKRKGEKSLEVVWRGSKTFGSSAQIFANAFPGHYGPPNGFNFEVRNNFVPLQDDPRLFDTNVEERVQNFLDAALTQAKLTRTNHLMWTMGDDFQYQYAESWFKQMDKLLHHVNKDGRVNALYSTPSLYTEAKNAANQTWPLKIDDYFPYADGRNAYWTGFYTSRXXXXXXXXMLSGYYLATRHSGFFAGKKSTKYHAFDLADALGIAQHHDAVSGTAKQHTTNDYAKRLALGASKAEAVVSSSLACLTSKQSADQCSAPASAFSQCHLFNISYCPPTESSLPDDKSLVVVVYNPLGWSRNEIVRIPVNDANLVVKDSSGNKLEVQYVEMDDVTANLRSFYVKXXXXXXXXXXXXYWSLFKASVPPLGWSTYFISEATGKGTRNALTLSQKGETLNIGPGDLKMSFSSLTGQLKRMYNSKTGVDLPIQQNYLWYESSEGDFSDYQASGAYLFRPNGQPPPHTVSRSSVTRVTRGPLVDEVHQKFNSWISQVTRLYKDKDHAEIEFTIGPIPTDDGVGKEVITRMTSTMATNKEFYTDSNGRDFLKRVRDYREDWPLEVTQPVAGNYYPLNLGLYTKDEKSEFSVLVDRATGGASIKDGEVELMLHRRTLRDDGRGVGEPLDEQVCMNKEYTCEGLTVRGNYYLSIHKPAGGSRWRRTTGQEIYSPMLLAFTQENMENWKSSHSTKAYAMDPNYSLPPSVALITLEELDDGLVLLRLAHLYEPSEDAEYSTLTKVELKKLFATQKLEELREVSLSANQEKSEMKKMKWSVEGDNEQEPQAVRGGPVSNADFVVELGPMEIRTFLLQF
The assay is described as follows: α-mannosidase inhibition assay (p-nitrophenyl α-D-mannopyranoside substrate). It counts as biochemical. As to conditions: Jack bean enzyme; NI = no inhibition. The method, then: Eight samples synthesized here were used in a biological assay against three glycosidases, namely α-glucosidase (yeast), β-glucosidase (sweet almond), and α-mannosidase (Jack bean).
After incubation for 20 min at 37 °C, the reaction was interrupted by the addition of 0.5 M sodium carbonate (100 μL). The amount of p-nitrophenol liberated was measured colorimetrically at 400 nm (optical density at 400 nm: ODtest). […] Assays for β-glucosidase and α-mannosidase were carried out as outlined above using p-nitrophenyl β-D-glucopyranoside and α-D-mannopyranoside as the substrates.
Assays on β-glucosidase and α-mannnosidase inhibition of synthesized carbadisaccharides 6 and 21–23 were carried out in a similar fashion.

Molecules are shown by their SMILES.

`OC[C@H]1NC[C@@H](O)[C@@H](O)[C@@H]1O` [Deoxymannojirimycin, reference compound] showed an IC50 of 640 µM.

Consider `OC[C@H]1NC[C@H](O)[C@@H](O)[C@@H]1O` [Deoxynojirimycin (DNJ), 1-Deoxynojirimycin, reference compound], for which the concentration for half-maximal inhibition (IC50) is > 10000 µM.

Source of the values: PMC5295242, “Synthesis of Natural O-Linked Carba-Disaccharides, (+)- and (−)-Pericosine E, and Their Analogues as α-Glucosidase Inhibitors” (Marine Drugs, 2017).
